The list shows a part of the results.
Test system: A. baumannii ATCC 17978
Experiment: relative growth (fraction of control); higher = less inhibition
Details: 50 µM

First: CN1CCN(C(=O)CC#N)CC1
Second: COc1ccccc1S(=O)(=O)N[C@@H]1C=C[C@H](CC(=O)N2CCN(C)CC2)O[C@H]1CO
The relative growth of the first is lower: 0.986 for the first, 1.05 for the second.

First: O=C(C[C@H]1C=C[C@@H](NC(=O)c2cccnc2)[C@H](CO)O1)NCc1ccncn1
Second: O=C(O)C[C@H]1C=C[C@@H](NC(=O)c2ccncc2)[C@H](CO)O1
The relative growth of the first is higher: 0.968 for the first, 0.949 for the second.

First: O=C(Cc1ccncc1)NCC[C@@H]1CC[C@@H](NC(=O)C2CCOCC2)[C@@H](CO)O1
Second: O=C(N[C@@H]1CC[C@H](CCNS(=O)(=O)c2ccc(F)cc2)O[C@@H]1CO)C1CC1
The relative growth of the first is lower: 0.865 for the first, 0.902 for the second.

Compared with `COc1ccc(NC(=O)N(C)C[C@H]2Oc3ncc(C#C[C@@H](C)O)cc3C(=O)N([C@H](C)CO)C[C@@H]2C)cc1`, `COc1ccc(NC(=O)N(C)C[C@H]2Oc3ncc(C#C[C@@H](C)O)cc3C(=O)N([C@@H](C)CO)C[C@@H]2C)cc1` is higher in relative growth: 0.972 for the first, 1.13 for the second.

First: COc1ccccc1CNC(=O)C[C@H]1C[C@H]2c3cc(NS(=O)(=O)c4ccc(F)cc4)ccc3O[C@H]2[C@@H](CO)O1
Second: Cc1ccc(S(=O)(=O)N[C@H]2CC[C@H](CC(=O)NCc3ccc(Cl)c(Cl)c3)O[C@@H]2CO)cc1
The relative growth of the first is lower: 0.999 for the first, 1.14 for the second.

Going from `CC(=O)OCC(=O)O[C@@H]1[C@H]2[C@@H](OC(=O)c3ccccc3)[C@@H](C)C[C@]2(O)[C@H](OC(C)=O)[C@@]2(C)[C@H](OC(C)=O)[C@]1(OC(C)=O)C[C@H]1C(=O)C(C)(C)C[C@@H]12` to `CO[C@@H]1CN(C)C(=O)c2cc(NC(=O)c3ccccc3)ccc2OC[C@H](C)N(C(=O)CN(C)C)C[C@@H]1C`, the relative growth falls from 1.2 to 0.94.

First: COc1ccc([C@@H]([C@H](Cc2ccccc2)OC(C)=O)N2C[C@H](CC(=O)N(C)C)[C@@H]3[C@H]([C@@H]2Cc2ccccc2)N(C)O[C@H]3c2ccccc2)cc1
Second: COc1ccc([C@@H]([C@H](Cc2ccccc2)OC(C)=O)N2C[C@@H]3C(=NO[C@H]3[C@@H](OC(C)=O)c3ccccc3)[C@@H]2Cc2ccccc2)cc1
The relative growth of the first is higher: 1.27 for the first, 1.1 for the second.

First: CCCC(=O)O[C@]1(C(=O)CO)CCC2[C@@H]3CCC4=CC(=O)CC[C@]4(C)C3[C@@H](O)C[C@@]21C (some centres not stated)
Second: CN(C)CC(=O)N[C@H]1CC[C@H](CC(=O)NCCN2CCCCC2)O[C@@H]1CO
The relative growth of the first is higher: 1.12 for the first, 1.07 for the second.

First: O=C(C[C@H]1CC[C@@H]2[C@H](COC[C@@H](O)CN2S(=O)(=O)c2cccc(F)c2)O1)NCCCN1CCOCC1
Second: COc1cccc(S(=O)(=O)N2C[C@H](O)COC[C@H]3O[C@@H](CC(=O)NCCCN4CCOCC4)CC[C@@H]32)c1
The relative growth of the first is higher: 0.903 for the first, 0.792 for the second.

Compared with `C[C@H]1CN([C@@H](C)CO)S(=O)(=O)c2ccc(-c3cncnc3)cc2O[C@@H]1CN(C)C(=O)NC1CCCC1`, `C[C@H]1CN([C@@H](C)CO)S(=O)(=O)c2ccc(-c3cncnc3)cc2O[C@@H]1CN(C)C(=O)C1CCCCC1` is lower in relative growth: 1.03 for the first, 0.923 for the second.

First: CN1CCN(C(=O)C[C@@H]2CC[C@@H]3[C@H](COC[C@@H](O)CN3Cc3ccc4c(c3)OCO4)O2)CC1
Second: COc1cccc(S(=O)(=O)N2C[C@H](O)COC[C@@H]3O[C@H](CC(=O)N4CCN(C)CC4)CC[C@H]32)c1
The relative growth of the first is lower: 0.956 for the first, 0.967 for the second.

Compared with `Cc1noc(C)c1NC(=O)N(C)C[C@H]1Oc2cc(C#CCN(C)C)ccc2S(=O)(=O)N([C@@H](C)CO)C[C@@H]1C`, `COCC(=O)N(C)C[C@@H]1Oc2cc(C#CCN(C)C)ccc2S(=O)(=O)N([C@@H](C)CO)C[C@@H]1C` is higher in relative growth: 1.02 for the first, 1.04 for the second.

First: C=C1NC(=O)CN1c1ccc(N)cc1
Second: Nc1ccc(C(=O)Oc2ccccc2)c(O)c1
The relative growth of the first is lower: 0.972 for the first, 1.04 for the second.

Going from `CO[C@@H](CN(C)C(=O)c1ccc2c(c1)OCO2)[C@H](C)CN([C@@H](C)CO)S(=O)(=O)c1ccc(C)cc1` to `COc1ccc(-c2cnc3c(c2)C(=O)N([C@H](C)CO)C[C@@H](C)[C@H](CN(C)C(=O)Cc2ccncc2)O3)cc1`, the relative growth rises from 0.984 to 0.989.

First: O=C(NC1CCCCC1)N(CCCl)[NH2+][O-]
Second: O=C(CN1CCOCC1)N[C@H]1CC[C@H](CCNC(=O)Nc2cc(F)ccc2F)O[C@H]1CO
The relative growth of the first is higher: 1.12 for the first, 0.813 for the second.

First: Nc1cc(N)nc(SCCC(=O)O)n1
Second: CCOC(=O)c1nnn(CC(N)=O)c1C
The relative growth of the first is higher: 1.16 for the first, 1.11 for the second.

First: O=C(C1=C[C@H](c2ccsc2)C[C@H](OCCCCO)O1)N1CCN(Cc2ccc3c(c2)OCO3)CC1
Second: O=C(C[C@H]1CC[C@H]2[C@@H](COC[C@@H](O)CN2C(=O)Nc2ccc(F)cc2)O1)NCCCN1CCOCC1
The relative growth of the first is higher: 1.14 for the first, 1.13 for the second.

First: Cn1cnc(CCNC(=O)C[C@@H]2CC[C@@H]3[C@H](COC[C@@H](O)CN3C(=O)C3CC3)O2)c1
Second: COCC#Cc1ccc2c(c1)O[C@@H](CN(C)C(=O)C1CCOCC1)[C@H](C)CN([C@H](C)CO)S2(=O)=O
The relative growth of the first is lower: 0.957 for the first, 1.03 for the second.

First: O=C(O)COCC(=O)NCc1ccco1
Second: O=C(O)C[C@H]1Oc2ccccc2NC1=O
The relative growth of the first is lower: 0.963 for the first, 1.15 for the second.

Compared with `COC(=O)C[C@@H]1C(=O)NCCN1C(=O)NS(=O)(=O)c1ccc(C)cc1`, `CC(=O)Nc1ccc(S(=O)(=O)Nc2onc(C)c2C)cc1` is higher in relative growth: 1.11 for the first, 1.12 for the second.

Compared with `COc1cc(NC(C)CCCN)c2ncccc2c1.O=P(O)(O)O.O=P(O)(O)O` (configuration not stated), `COc1cccc(C#Cc2ccc3c(c2)O[C@H](CN(C)C(=O)c2ccccn2)[C@H](C)CN([C@H](C)CO)S3(=O)=O)c1` is higher in relative growth: 1.06 for the first, 1.14 for the second.

Going from `Clc1ccccc1Nc1ccc(-c2ccncc2)s1` to `Cc1c(C#N)c(Sc2ccccc2Cl)nc2ccccc12`, the relative growth falls from 1.09 to 1.05.

Going from `CCOC(=O)CCC(=O)O[C@H]1[C@H](O[C@@H]2[C@@H](C)[C@H](O[C@H]3C[C@@](C)(OC)[C@@H](O)[C@H](C)O3)[C@@H](C)C(=O)O[C@H](CC)[C@@](C)(O)[C@H](O)[C@@H](C)C(=O)[C@H](C)C[C@@]2(C)O)O[C@H](C)C[C@@H]1N(C)C` to `CN(C)[C@@H]1C(O)=C(C(N)=O)C(=O)[C@@]2(O)C(O)=C3C(=O)c4c(O)cccc4[C@@](C)(O)[C@H]3[C@H](O)[C@@H]12.Cl`, the relative growth falls from 0.214 to 0.201.

Going from `C=CCOC(=O)[C@@H]1[C@H]2C(=O)O[C@H](c3ccccc3)[C@H](c3ccccc3)N2[C@H](c2ccc(OCCOC(=O)[C@H]3C[C@H]4C(=O)N[C@@H](CCCCNC(C)=O)C(=O)N4[C@H]3c3cccc(OCCO)c3)cc2)[C@@]12C(=O)Nc1ccc(I)cc12` to `O=C1NC[C@@H](c2ccccc2)OC(=O)[C@H](Cc2ccc(F)cc2)CCC=CC[C@@H]1CC(=O)N(CCO)Cc1ccccc1`, the relative growth falls from 1.15 to 0.951.

First: C[C@H]1CN([C@@H](C)CO)C(=O)c2cc(Br)cnc2O[C@H]1CN(C)S(=O)(=O)c1cccs1
Second: C[C@H]1CN([C@@H](C)CO)C(=O)Cc2cc(NC(=O)Nc3ccc(Cl)c(Cl)c3)ccc2O[C@H]1CN(C)S(=O)(=O)c1ccc(Oc2ccccc2)cc1
The relative growth of the first is lower: 0.966 for the first, 0.997 for the second.

First: COc1ccc(C(=O)O)cc1
Second: CNNCc1ccc(C(=O)NC(C)C)cc1
The relative growth of the first is lower: 1.09 for the first, 1.12 for the second.

Compared with `CS(=O)(=O)Nc1ccc([N+](=O)[O-])cc1Oc1ccccc1`, `Clc1cccc(Cl)c1CSCc1cc2ccccc2o1` is higher in relative growth: 0.927 for the first, 1.02 for the second.

Going from `COC(=O)c1cn(C[C@@H](Cc2ccccc2)NC(=O)N[C@H](CO)CCc2oc(C(C)=O)c(C(=O)OC)c2C(=O)OC)nn1` to `COc1ccc(COC[C@@]23Oc4ccccc4[C@@H](NC(=O)N2C)[C@H]3COC(=O)NCCCCCC(=O)NO)cc1`, the relative growth falls from 0.837 to 0.833.

Going from `COCCCNC(=O)[C@@]1(Sc2ccc(C)cc2)CC(=O)N(Cc2cc(C(F)(F)F)cc(C(F)(F)F)c2)[C@@H]1c1ccc(CO)cc1` to `COc1ccccc1CN1C(=O)c2ccccc2[C@](Cc2ccccc2I)(C(=O)NCC(F)(F)F)[C@@H]1c1ccc(CO)cc1`, the relative growth falls from 0.98 to 0.979.

Going from `CC(=O)N1CSC[C@H]1C(=O)O` to `C[C@H](N)C(=O)O`, the relative growth rises from 0.964 to 1.03.

First: C[C@@H]1C[C@H](C)CN(Cc2nc3c(c(=O)n(C)c(=O)n3C)n2CC(N)=O)C1
Second: C[C@H](CO)N1C[C@H](C)[C@@H](CN(C)C(=O)Nc2ccccc2C(F)(F)F)OCc2cnnn2CCCC1=O
The relative growth of the first is lower: 1.08 for the first, 1.1 for the second.

Going from `O=C1NC2=C(C(=O)OC2)[C@H](c2ccccc2)N1` to `CC(=O)N(C)[C@H]1C(=O)C(=O)c2ccccc2C1=O`, the relative growth rises from 0.98 to 1.04.

Going from `Cc1ccc([C@@H](CN)c2c[nH]c3ccccc23)o1` to `CN(C)CCc1c[nH]c2ccc(C[C@H]3COC(=O)N3)cc12`, the relative growth falls from 0.988 to 0.931.

Compared with `Cn1cnc2c(C(F)(F)F)nc(N)nc21`, `CCSc1nc(-c2ccc(C)cc2)cc(C(F)(F)F)c1C#N` is higher in relative growth: 0.924 for the first, 1.01 for the second.

First: C[N+](C)(C)CC(O)CC(=O)O.[Cl-] (configuration not stated)
Second: COc1cc(/C=C/C(=O)O)ccc1O
The relative growth of the first is lower: 0.936 for the first, 0.971 for the second.

Going from `OCc1ccccc1` to `OCCN(CCO)c1nc2ccccc2[nH]1`, the relative growth falls from 1.01 to 0.971.

First: NS(=O)(=O)c1cc2c(cc1Cl)NCNS2(=O)=O
Second: C[C@@H]1CN([C@H](C)CO)S(=O)(=O)c2ccc(C#CCN(C)C)cc2O[C@@H]1CN(C)C(=O)c1ccccc1F
The relative growth of the first is higher: 1.15 for the first, 1.11 for the second.

Compared with `Cc1cc(NC(=O)CSc2nnc[nH]2)no1`, `Cc1cc(C)n(C(=O)Cn2cc([N+](=O)[O-])cn2)n1` is lower in relative growth: 0.962 for the first, 0.842 for the second.

First: CC(C)(N)c1ccc(F)cc1
Second: CN(C)CCC[C@@]1(c2ccc(F)cc2)OCc2cc(C#N)ccc21.O=C(O)C(=O)O
The relative growth of the first is higher: 1.19 for the first, 0.929 for the second.

First: CSc1cc(-c2ccc(Cl)cc2)nc(-c2cccs2)c1
Second: C[n+]1cccc(C(=O)[O-])c1
The relative growth of the first is higher: 1.17 for the first, 1.07 for the second.

Compared with `COc1ncnc(OC)c1C`, `O=C(O)c1cc(O)c2c(c1)[C@H]([C@H]1c3cc(C(=O)O)cc(O)c3C(=O)c3c(O[C@@H]4O[C@H](CO)[C@@H](O)[C@H](O)[C@H]4O)cccc31)c1cccc(O[C@@H]3O[C@H](CO)[C@@H](O)[C@H](O)[C@H]3O)c1C2=O` is lower in relative growth: 1.16 for the first, 0.922 for the second.
